Test results as given in patent US20240415985A1, “PHOTOCLEAVABLE PRODRUG-BASED NANOMEDICINE FOR IN-SITU MONITORABLE CANCER THERAPY” (The University of Hong Kong, priority 2021, published 2024).

Test system: human umbilical vein endothelial cells (HUVECs)
Test: Cytotoxicity in dark, biocompatibility evaluation
Format: cell-based
Conditions: 24 h, up to 100 μM
Experimental: HCT116 cells were cultured in RPMI-1640 (Gibco) supplemented with 10% FBS (Gibco) and 100 units/mL antibiotics (Penicillin-Streptomycin, Gibco) at 37° C. in a 5% CO2 humidified atmosphere. HUVECs cells were cultured in DMEM (Gibco) supplemented with 10% FBS (Gibco) and 100 units/mL antibiotics (Penicillin-Streptomycin, Gibco) at 37° C. in a 5% CO2 humidified atmosphere.
The cell viability was evaluated by MTT assay. HCT116 cells were incubated in 96-well microliter plates for 24 h. Then, gradient concentrations of BC prodrug or IR783/BC NPs in RPMI 1640 culture medium were added to the cells. After 6 h incubation, the residual BC or IR783/BC NPs were removed by fresh RPMI 1640 culture medium (100 μL). Then, the cells were irradiated by 530 nm LED light (50 mW/cm^2, 5 min) or incubated at room temperature without light. After another incubation for 24 h, MTT solution (10 μL, 10 mg/mL) was added to the cells to cultivate for 3 h. Next, the cell culture medium was discarded, and DMSO (100 μL) was then added. The absorbance was measured by a multi-mode microplate reader at 490 nm, 570 nm and 630 nm.

boron-dipyrromethene-chlorambucil [BC]
cytotoxicity in dark: Negligible cytotoxicity
